Source: US10112926B2 (priority 2014, dated 2018)

Chains of the proteins cited; added tags and fusions are not shown. Lines headed by an entry give the natural chain unless they say otherwise; changes in a name come on top.
UniProt P42336, whole entry, looked up: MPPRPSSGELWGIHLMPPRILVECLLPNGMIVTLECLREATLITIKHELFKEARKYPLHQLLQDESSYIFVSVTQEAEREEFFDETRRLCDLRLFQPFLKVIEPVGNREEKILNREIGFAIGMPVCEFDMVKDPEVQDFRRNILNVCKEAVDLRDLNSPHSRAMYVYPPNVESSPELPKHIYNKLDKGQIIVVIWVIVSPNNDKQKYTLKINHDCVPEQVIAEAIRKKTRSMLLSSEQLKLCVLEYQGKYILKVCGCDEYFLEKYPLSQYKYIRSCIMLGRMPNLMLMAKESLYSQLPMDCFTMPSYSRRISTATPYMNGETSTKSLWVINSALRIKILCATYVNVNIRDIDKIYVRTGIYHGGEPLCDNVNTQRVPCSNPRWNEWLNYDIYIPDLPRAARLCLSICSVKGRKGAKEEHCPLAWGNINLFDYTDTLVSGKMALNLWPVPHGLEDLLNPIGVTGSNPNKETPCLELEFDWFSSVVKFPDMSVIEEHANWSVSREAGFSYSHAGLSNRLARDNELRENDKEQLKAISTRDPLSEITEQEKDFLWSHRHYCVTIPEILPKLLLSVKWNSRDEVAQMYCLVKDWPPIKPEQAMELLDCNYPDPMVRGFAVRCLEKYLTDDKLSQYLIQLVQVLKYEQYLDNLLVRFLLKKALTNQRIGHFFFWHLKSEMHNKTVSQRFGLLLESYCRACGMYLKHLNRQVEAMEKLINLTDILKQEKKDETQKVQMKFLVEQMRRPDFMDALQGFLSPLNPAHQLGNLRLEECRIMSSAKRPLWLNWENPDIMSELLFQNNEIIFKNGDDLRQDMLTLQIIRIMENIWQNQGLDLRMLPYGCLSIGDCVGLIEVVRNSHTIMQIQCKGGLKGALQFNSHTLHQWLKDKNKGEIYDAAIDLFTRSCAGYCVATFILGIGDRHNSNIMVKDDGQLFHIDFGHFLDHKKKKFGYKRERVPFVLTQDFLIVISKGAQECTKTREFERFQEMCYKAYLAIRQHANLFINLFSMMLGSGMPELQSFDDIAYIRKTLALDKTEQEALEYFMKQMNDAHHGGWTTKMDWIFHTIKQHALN
UniProt P42338: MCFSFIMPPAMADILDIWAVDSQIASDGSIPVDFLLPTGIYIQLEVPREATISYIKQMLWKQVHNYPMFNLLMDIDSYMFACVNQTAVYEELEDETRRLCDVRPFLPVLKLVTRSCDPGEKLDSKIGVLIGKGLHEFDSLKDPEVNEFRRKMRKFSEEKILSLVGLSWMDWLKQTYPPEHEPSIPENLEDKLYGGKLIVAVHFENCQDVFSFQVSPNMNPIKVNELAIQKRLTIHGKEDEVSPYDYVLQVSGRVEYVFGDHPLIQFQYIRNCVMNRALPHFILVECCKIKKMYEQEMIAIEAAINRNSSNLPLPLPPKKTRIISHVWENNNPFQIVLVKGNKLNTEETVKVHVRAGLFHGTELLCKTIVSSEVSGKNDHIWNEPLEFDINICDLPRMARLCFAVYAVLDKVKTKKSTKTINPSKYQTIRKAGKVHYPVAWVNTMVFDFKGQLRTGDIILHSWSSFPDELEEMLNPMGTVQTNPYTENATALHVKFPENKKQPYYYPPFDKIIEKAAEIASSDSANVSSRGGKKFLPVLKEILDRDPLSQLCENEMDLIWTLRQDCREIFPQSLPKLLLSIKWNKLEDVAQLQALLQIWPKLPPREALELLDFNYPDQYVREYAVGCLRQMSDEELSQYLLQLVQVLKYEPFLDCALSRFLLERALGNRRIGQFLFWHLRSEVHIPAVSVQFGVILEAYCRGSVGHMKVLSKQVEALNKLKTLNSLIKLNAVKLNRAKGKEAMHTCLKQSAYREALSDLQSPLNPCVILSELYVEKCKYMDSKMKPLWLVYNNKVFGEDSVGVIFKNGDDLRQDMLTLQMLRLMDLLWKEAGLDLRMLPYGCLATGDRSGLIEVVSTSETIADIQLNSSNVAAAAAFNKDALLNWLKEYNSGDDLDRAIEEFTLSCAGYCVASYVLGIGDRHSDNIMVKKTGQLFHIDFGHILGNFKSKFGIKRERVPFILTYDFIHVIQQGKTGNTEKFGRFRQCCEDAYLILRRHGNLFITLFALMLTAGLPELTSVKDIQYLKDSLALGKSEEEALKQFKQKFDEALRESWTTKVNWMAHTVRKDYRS

Tests used:
PI 3-kinase alpha = PI 3-kinase alpha (Homo sapiens (Human), UniProt P42336); details: read-out: Assay A PI3Kα IC50
PI 3-kinase beta = PI 3-kinase beta (Homo sapiens (Human), UniProt P42338); details: read-out: Assay B PI3Kβ IC50
[1] = molecular target: PI 3-kinase alpha (Rat-1 pBABEpuro Myr-HA-hp110 alpha cells) (Homo sapiens (Human), UniProt P42336); assay: cell-based; details: Assay H PI3Kα IC50
[2] = molecular target: PI 3-kinase beta (Rat-1 pBABEpuro Myr-HA-hp110 beta cells) (Homo sapiens (Human), UniProt P42338); assay: cell-based; details: Assay I PI3Kβ IC50

SMILES	IC50 (PI 3-kinase alpha) [nM]	IC50 (PI 3-kinase beta) [nM]	IC50 [1] [nM]	IC50 [2] [nM]
Cc1noc(-c2cc(-c3cc(S(=O)(=O)NCC4(O)COC4)ccc3C)cnc2N)n1 [Example 56, 3-(6-Amino-5-(3-methyl-1,2,4-oxadiazol-5-yl)pyridin-3-yl)-N-((3-hydroxyoxetan-3-yl)methyl)-4-methylbenzenesulfonamide]	1300	6300	> 10000	7630
Cc1noc(-c2cc(-c3cc(S(=O)(=O)NCC4CCCO4)ccc3C)cnc2N)n1 (stereo not shown) [Example 57, 3-(6-Amino-5-(3-methyl-1,2,4-oxadiazol-5-yl)pyridin-3-yl)-4-methyl-N-((tetrahydrofuran-2-yl)methyl)benzenesulfonamide]	1700	> 10000	3230	8720
Cc1ccc(S(=O)(=O)NCC(C)(C)O)cc1-c1cnc(N)c(-c2ccn(C)c2)c1 [Example 58, 3-(6-Amino-5-(1-methyl-1H-pyrrol-3-yl)pyridin-3-yl)-N-(2-hydroxy-2-methylpropyl)-4-methylbenzenesulfonamide hydrochloride]	1300	> 10000	> 10000	> 10000
Cc1nc(-c2cc(-c3cc(S(=O)(=O)NCC(C)(C)O)ccc3C)cnc2N)cs1 [Example 59, 3-(6-Amino-5-(2-methylthiazol-4-yl)pyridin-3-yl)-N-(2-hydroxy-2-methylpropyl)-4-methylbenzenesulfonamide]	830	9200	> 10000	> 10000
Cc1ccc(S(=O)(=O)NCC(C)(C)O)cc1-c1cnc(N)c(-c2cnoc2C)c1 [Example 62, 3-(6-Amino-5-(5-methylisoxazol-4-yl)pyridin-3-yl)-N-(2-hydroxy-2-methylpropyl)-4-methylbenzenesulfonamide]	1200	> 10000	> 10000	> 10000
Cc1ccc(S(=O)(=O)NCC(C)(C)O)cc1-c1cnc(N)c(-c2cn(C)nn2)c1 [Example 63, 3-(6-Amino-5-(1-methyl-1H-1,2,3-triazol-4-yl)pyridin-3-yl)-N-(2-hydroxy-2-methylpropyl)-4-methylbenzenesulfonamide hydrochloride]	2200	5100	> 3000	> 10000
Cc1ncc(-c2cc(-c3cc(S(=O)(=O)NCC4(CO)COC4)ccc3C)cnc2N)o1 [Example 67, 3-(6-Amino-5-(2-methyloxazol-5-yl)pyridin-3-yl)-N-((3-(hydroxymethyl)oxetan-3-yl)methyl)-4-methylbenzenesulfonamide]	220	2300	> 10000	> 10000
Cc1ncc(-c2cc(-c3cc(S(=O)(=O)NCC4(CO)COC4)ccc3C)cnc2N)s1 [Example 68, 3-(6-Amino-5-(2-methylthiazol-5-yl)pyridin-3-yl)-N-((3-(hydroxymethyl)oxetan-3-yl)methyl)-4-methylbenzenesulfonamide]	500	2800	> 10000	> 10000
Cc1ncc(-c2cc(-c3cc(S(=O)(=O)NCC4(C)COC4)ccc3C)cnc2N)o1 [Example 69, 3-(6-Amino-5-(2-methyloxazol-5-yl)pyridin-3-yl)-4-methyl-N-((3-methyloxetan-3-yl)methyl)benzenesulfonamide]	320	2200	> 10000	2700
Cc1ccc(S(=O)(=O)N[C@H]2CC[C@H](O)CC2)cc1-c1cnc(N)c(-c2nc(C(F)F)no2)c1 [Example 70, 3-(6-Amino-5-(3-(difluoromethyl)-1,2,4-oxadiazol-5-yl)pyridin-3-yl)-N-((1r,4r)-4-hydroxycyclohexyl)-4-methylbenzenesulfonamide hydrochloride]	580	4400	> 6500	> 3000
Cc1ccc(S(=O)(=O)NCC(C)(C)O)cc1-c1cnc(N)c(-c2nc(C(F)F)no2)c1 [Example 71, 3-(6-Amino-5-(3-(difluoromethyl)-1,2,4-oxadiazol-5-yl)pyridin-3-yl)-N-(2-hydroxy-2-methylpropyl)-4-methylbenzenesulfonamide hydrochloride]	2600	> 10000	> 6500	> 3000
Cc1cccc(NS(=O)(=O)c2ccc(C)c(-c3cnc(N)c(-c4nc(C)no4)c3)c2)n1 [Example 72, 3-(6-Amino-5-(3-methyl-1,2,4-oxadiazol-5-yl)pyridin-3-yl)-4-methyl-N-(6-methylpyridin-2-yl)benzenesulfonamide]	1200	1300	5200	1780
Cc1ncc(-c2cc(-c3cc(S(N)(=O)=O)ccc3C)cnc2N)s1 [Example 74, 3-(6-Amino-5-(2-methylthiazol-5-yl)pyridin-3-yl)-4-methylbenzenesulfonamide]	520	5900	> 10000	> 10000
Cc1noc(-c2cc(-c3cc(S(N)(=O)=O)ccc3C)cnc2N)n1 [Example 75, 3-(6-Amino-5-(3-methyl-1,2,4-oxadiazol-5-yl)pyridin-3-yl)-4-methylbenzenesulfonamide]	660	> 10000	7860	850
Cc1cc(-c2cc(-c3cc(S(=O)(=O)N[C@H]4CC[C@H](CO)CC4)ccc3C)cnc2N)ccn1 [Example 77, trans-3-(2-Amino-2′-methyl-[3,4′-bipyridin]-5-yl)-N-(−4-(hydroxymethyl)cyclohexyl)-4-methylbenzenesulfonamide hydrochloride]	30	1700	3580	> 10000
Cc1ccc(S(=O)(=O)NCCC(C)(C)O)cc1-c1cnc(N)c(-c2nc(CC(F)(F)F)no2)c1 [Example 79, 3-(6-Amino-5-(3-(2,2,2-trifluoroethyl)-1,2,4-oxadiazol-5-yl)pyridin-3-yl)-N-(3-hydroxy-3-methylbutyl)-4-methylbenzenesulfonamide]	130	5400	340	> 10000
Cc1ccc(S(=O)(=O)NCC(C)(C)O)cc1-c1cnc(N)c(-c2nc(C3CC3)no2)c1 [Example 80, 3-(6-Amino-5-(3-cyclopropyl-1,2,4-oxadiazol-5-yl)pyridin-3-yl)-N-(2-hydroxy-2-methylpropyl)-4-methylbenzenesulfonamide hydrochloride]	900	4650	5860	2970
Cc1cc(-c2cc(-c3cc(S(=O)(=O)NC[C@H]4C[C@@H](O)C4)ccc3C)cnc2N)on1 [Example 84, cis-3-(6-Amino-5-(3-methylisoxazol-5-yl)pyridin-3-yl)-N-(((1s,3s)-3-hydroxycyclobutyl)methyl)-4-methylbenzenesulfonamide]	270	4450	7030	> 10000
Cc1noc(-c2cc(-c3cc(S(=O)(=O)NCC(C)(C)O)c(F)cc3C)cnc2N)n1 [Example 85, 5-(6-Amino-5-(3-methyl-1,2,4-oxadiazol-5-yl)pyridin-3-yl)-2-fluoro-N-(2-hydroxy-2-methylpropyl)-4-methylbenzenesulfonamide]	300	1300	> 10000	2980
Cc1cnc(-c2cc(-c3cc(S(=O)(=O)NCC(C)(C)O)ccc3C)cnc2N)s1 [Example 90, 3-(6-Amino-5-(5-methylthiazol-2-yl)pyridin-3-yl)-N-(2-hydroxy-2-methylpropyl)-4-methylbenzenesulfonamide]	160	880	> 10000	3570
Cc1nc(-c2cc(-c3cc(S(=O)(=O)N[C@H]4CC[C@H](O)CC4)ccc3C)cnc2N)cs1 [Example 92, 3-(6-Amino-5-(2-methylthiazol-4-yl)pyridin-3-yl)-N-((1r,4r)-4-hydroxycyclohexyl)-4-methylbenzenesulfonamide]	1600	1900	> 10000	> 10000
Cc1nc(-c2cc(-c3cc(S(=O)(=O)NCCC(C)(C)O)ccc3C)cnc2N)cs1 [Example 93, 3-(6-Amino-5-(2-methylthiazol-4-yl)pyridin-3-yl)-N-(3-hydroxy-3-methylbutyl)-4-methylbenzenesulfonamide]	880	4800	> 10000	> 10000
Cc1ncc(-c2cc(-c3cc(S(=O)(=O)N[C@H]4CC[C@H](O)CC4)ccc3C)cnc2N)s1 [Example 97, 3-(6-amino-5-(2-methylthiazol-5-yl)pyridin-3-yl)-N-((1r,4r)-4-hydroxycyclohexyl)-4-methylbenzenesulfonamide]	160	1100	2840	> 10000
Cc1ccc(S(=O)(=O)NCCC(C)(C)O)cc1-c1cnc(N)c(-c2cnn(C)n2)c1 [Example 106, 3-(6-amino-5-(2-methyl-2H-1,2,3-triazol-4-yl)pyridin-3-yl)-N-(3-hydroxy-3-methylbutyl)-4-methylbenzenesulfonamide]	330	2700	1140	1020
Cc1ncc(-c2cc(-c3cc(S(=O)(=O)NOCC(C)(C)O)ccc3C)cnc2N)o1 [Example 107, 3-(6-amino-5-(2-methyloxazol-5-yl)pyridin-3-yl)-N-(2-hydroxy-2-methylpropoxy)-4-methylbenzenesulfonamide hydrochloride]	50	460	750	3360

Structures can show the parent of a compound that is named as a salt.
